Values quoted from earlier work, collected in patent US9974782B2, “Phosphodiesterase inhibitors and uses thereof” (THE TRUSTEES OF COLUMBIA UNIVERSITY IN THE CITY OF NEW YORK, priority 2008, dated 2018).

Assays:
PDE5 = PDE5 (Homo sapiens, UniProt O76074); settings: cited from earlier work; for IC50: read-out: IC50 against PDE5
PDE1-6 = settings: cited from earlier work
PDE1-4 = settings: cited from earlier work

SMILES | IC50 (PDE5) [nM] | selectivity versus PDE1-6 (PDE1-6) | fold more potent than sildenafil (PDE5) [fold] | selectivity versus PDE1-4 (PDE1-4/PDE5) (PDE1-4)
CCn1ncc2c3c(NCc4ccc(OC)c(Cl)c4)nnc(-n4cnc(C(=O)OC)c4)c3cnc21 | 0.3 |  |  | 
CCc1cc(C#N)cc2c(NCc3ccc(OC)c(Cl)c3)c(CO)cnc12 | 0.05 | > 7800 | 30 | 
CCn1ncc2c(NCc3ccc(OC)c(Cl)c3)c(C(=O)NCc3ccncc3)cnc21 | < 0.8 |  |  | 
COC(=O)c1c(C(=O)N2CCN(CCO)CC2)cc2c(Cl)cccc2c1-c1cc(Br)c(OC)c(OC)c1 | 6.2 |  |  | > 16000
